# Tests used:
# Sequences of proteins named here, by UniProt entry; tags and fusion partners are left off. A line that says so, or that is headed by a name, gives the form on record, which may keep a tag or linker. Residues count along the entry.
# UniProt Q86WV6, 1-379 with tags or gaps H232R: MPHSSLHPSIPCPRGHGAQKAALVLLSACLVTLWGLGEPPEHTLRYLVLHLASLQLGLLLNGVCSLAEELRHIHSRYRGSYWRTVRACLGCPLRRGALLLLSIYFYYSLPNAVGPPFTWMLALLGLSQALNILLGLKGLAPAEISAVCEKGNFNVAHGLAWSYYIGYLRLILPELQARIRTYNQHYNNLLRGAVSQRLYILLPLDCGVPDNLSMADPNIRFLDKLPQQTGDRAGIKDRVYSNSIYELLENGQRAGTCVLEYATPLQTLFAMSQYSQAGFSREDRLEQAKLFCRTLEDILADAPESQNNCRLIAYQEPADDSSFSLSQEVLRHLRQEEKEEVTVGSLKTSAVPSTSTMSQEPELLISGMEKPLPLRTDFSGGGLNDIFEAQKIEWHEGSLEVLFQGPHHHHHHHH
# UniProt Q86WV6, 1-379 with tags or gaps G230A/H232R/R293Q/R71H: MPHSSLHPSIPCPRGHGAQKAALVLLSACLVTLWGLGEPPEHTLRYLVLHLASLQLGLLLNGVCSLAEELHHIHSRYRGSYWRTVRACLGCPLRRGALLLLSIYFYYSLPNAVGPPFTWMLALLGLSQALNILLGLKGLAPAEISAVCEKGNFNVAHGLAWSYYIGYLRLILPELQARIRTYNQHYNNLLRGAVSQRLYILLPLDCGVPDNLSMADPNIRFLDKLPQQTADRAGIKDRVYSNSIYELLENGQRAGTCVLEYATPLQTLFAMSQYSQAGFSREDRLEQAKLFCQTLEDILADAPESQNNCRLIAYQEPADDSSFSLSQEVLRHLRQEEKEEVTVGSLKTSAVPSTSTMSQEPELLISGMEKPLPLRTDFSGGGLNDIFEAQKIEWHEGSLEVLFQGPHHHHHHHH
# [1] = test system: IFN-β secretion from THP1 cells; assay: IFN-β secretion in THP1 cell culture (5 h); details: 5 h incubation, compound at 30 μM, 30 uM cGAMP = 100%, tested form: triethylammonium salt
# full-length HAQ STING = full-length HAQ STING (Homo sapiens, UniProt Q86WV6, G230A/H232R/R293Q/R71H); assay: 3H-cGAMP filtration binding assay (HAQ STING); details: read-out: EC50 (nM), 3H-cGAMP filtration binding assay for HAQ STING; competition with tritiated cGAMP ligand; T. ni cell membranes overexpressing full-length HAQ STING; tested form: triethylammonium salt
# full-length WT STING = full-length WT STING (Homo sapiens, UniProt Q86WV6, H232R); assay: 3H-cGAMP filtration binding assay (WT STING); details: read-out: EC50 (nM), 3H-cGAMP filtration binding assay for WT STING; competition with tritiated cGAMP ligand; T. ni cell membranes overexpressing full-length WT STING; tested form: triethylammonium salt
structure (smiles),measurement,setting,value
"Nc1nc2c(ncn2[C@@H]2O[C@@H]3COP(=O)(S)O[C@H]4C[C@H](n5cc(F)c6c(=O)[nH]cnc65)O[C@@H]4COP(=O)(S)O[C@@H]2[C@@H]3F)c(=O)[nH]1 (single isomer, unassigned)",% Effect at 30 μM relative to 2′3′-cGAMP,[1],53%
same,EC50,full-length HAQ STING,14 nM
same,EC50,full-length WT STING,21 nM
